We go through one compound from ChEMBL document CHEMBL3585309, “Peroxisome Proliferator-Activated Receptor γ (PPARγ) and Ligand Choreography: Newcomers Take the Stage” (J Med Chem, 2015).

Sequences of proteins named here, by UniProt entry; tags and fusion partners are left off. A change or cut given only in a name is not applied to a line headed by its entry.
UniProt P37231: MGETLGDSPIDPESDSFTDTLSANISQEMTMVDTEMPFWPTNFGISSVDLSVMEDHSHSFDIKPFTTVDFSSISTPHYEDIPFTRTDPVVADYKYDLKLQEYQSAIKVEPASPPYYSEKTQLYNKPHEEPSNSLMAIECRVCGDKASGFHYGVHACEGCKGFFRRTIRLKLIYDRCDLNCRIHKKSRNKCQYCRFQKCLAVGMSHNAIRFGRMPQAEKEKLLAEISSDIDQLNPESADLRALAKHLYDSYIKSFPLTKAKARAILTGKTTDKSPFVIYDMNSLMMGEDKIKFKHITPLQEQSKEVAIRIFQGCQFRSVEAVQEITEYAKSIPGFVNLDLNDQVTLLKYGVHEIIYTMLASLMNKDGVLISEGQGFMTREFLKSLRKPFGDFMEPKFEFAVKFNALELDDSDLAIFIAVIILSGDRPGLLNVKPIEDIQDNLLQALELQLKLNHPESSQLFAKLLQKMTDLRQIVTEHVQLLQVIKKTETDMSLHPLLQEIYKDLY

The assay concerns the target Peroxisome proliferator-activated receptor gamma (Homo sapiens, UniProt P37231). Briefly: Activity at PPARgamma (unknown origin) assessed as transactivation activity by reporter gene assay relative to rosiglitazone. (In general: Reporter assays use an easily measured gene product as a stand-in for the process of interest.)

For `Cc1c(C)n(Cc2ccc(-c3ccccc3C(=O)O)cc2)c2ccc(C(=O)N[C@@H](C)c3ccc([N+](=O)[O-])cc3)cc12`, the %max was 0%.
